Tested on: female mice
Experiment: Skin sensitization test, local lymph node assay (LLNA, OECD test guideline 429), BrdU intake by ELISA
Details: test substance 50.0 w/v % in acetone/olive oil 4:1, 25 μL/auricle once a day for 3 days

Ethyleneoxide-modified trimethylolpropane trimethacrylate [TMPT-3EO]
SI value (Stimulation Index): 1.0
